In paper PMC6591005 (Immunity, 2019):

Molecular target: GI.1 Virus like particles (Norovirus (strain Human/NoV/United …, UniProt Q83884))
Assay: ELISA; EIA: plates coated with VLP at 0.25 μg/ml in PBS for 4 h, blocked in 5% dry milk in PBS-0.05% Tween-20; two-fold serial dilutions of mAb at 37°C; anti-human IgG-HRP; less than 0.2 OD at 2 μg/ml scored as negative
Conditions: both partners purified

B1: A1227 (recombinant IgG1) (antibody, V domains shown)
VH: QVQLVQSGGGMVQPGGSLSLSCAASGFTLSNYAMTWVRQAPGKGLEWVSSIGGSGGTTYYADSVKGRFTISRDSSMNTLYLQMSNLRAGDTAVYYCAKDKTRTLRLGYSGMDVWGQGTTVTVSS
VL: DIRLTQSPSSLSASVGDRVTITCRASQSISSYLNWYQQKPGKAPDLLIYGASSLQSGVPSRFSGSGSGTDFTLTISSLQPEDFGNYYCQQSFSTPRTFGQGTKVELK
  binding result: binds
